The source of these data is PMC4956214 (PLoS ONE, 2016).

By UniProt entry, the sequences of proteins in these tests, tags left out. Residues count along the entry.
UniProt P01308, 25-54, chain 1 of 2: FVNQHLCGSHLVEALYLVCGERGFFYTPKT
UniProt P01308, 90-110, chain 2 of 2: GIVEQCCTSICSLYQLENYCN

Test [1] concerns the target human insulin (Homo sapiens, UniProt P01308). Description: BLI; Octet RED, 25°C, 96-well microplates; biotinylated human insulin (25 μg/ml) immobilised on Streptavidin Biosensors; peptides in solution in a dilution series; kinetic buffer (1 mM phosphate, 15 mM NaCl, 0.1 mg/ml BSA, 0.002% Tween-20); association 1000 sec, dissociation 1000 sec; double reference subtraction (BSA reference).

Test [2] deals with T1, human insulin (human, UniProt P01308 25-54; P01308 90-110, biotinylated with a NHS-PEO4-biotin kit; residues and chain not stated | biotinylated with a NHS-PEO4-biotin kit; residues and chain not stated). The test is described as above. The note with it: both partners purified.
For test [3], the target named is T1, human insulin. The test is described as follows: BLI. The note with it: both partners purified.

Usually Kd stands for a measure of binding affinity in units of concentration. Read a high Kd as weaker binding. peptide analogue 29 (HIR) showed a Kd in test [1] of 44.8 µM.
SRTWSPPFESEDSQKH [peptide analogue 9 (HIR FnIII-2, α655-670; positive control)] had a Kd in test [2] of 63.6 µM.
Molecule NLRESNNLSSLTNCSTIHGTLVIRN [peptide analogue 1 (SjIR-1 L1)] showed a Kd in test [3] of 0.224 µM.
